Target: human ERK-2 (Mitogen Activated Kinase 1) (Homo sapiens, UniProt P28482)
Experiment: ERK-2 Enzymatic Assay
Type: biochemical
Conditions: TABLE II; 5nM ERK-2 enzyme, 25µM ATP, S/T17 peptide substrate; single assay or mean of multiple assays

Amino acid sequences for entries named in this document (tags omitted). Residues count along the entry.
UniProt P28482, 8-360 limits assumed: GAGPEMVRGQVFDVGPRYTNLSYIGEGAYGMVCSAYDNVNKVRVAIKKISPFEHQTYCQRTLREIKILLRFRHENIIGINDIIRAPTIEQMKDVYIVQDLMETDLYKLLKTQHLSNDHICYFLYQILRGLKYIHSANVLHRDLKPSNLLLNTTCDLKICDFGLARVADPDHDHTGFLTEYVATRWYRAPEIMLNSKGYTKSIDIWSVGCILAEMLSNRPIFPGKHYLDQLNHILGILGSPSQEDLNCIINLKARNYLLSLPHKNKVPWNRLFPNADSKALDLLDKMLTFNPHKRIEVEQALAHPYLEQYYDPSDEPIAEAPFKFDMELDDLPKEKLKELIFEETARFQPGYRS

## COc1ccc([C@H](NC(=O)c2cc(F)c3cnc(N[C@H]4C[C@H](F)C4)nc3c2)c2cnn(C)c2)cc1F
  IC50: 4.5 nM

From patent publication EP2739618B1, “QUINAZOLINE COMPOUNDS AS SERINE/THREONINE KINASE INHIBITORS” (Array Biopharma, Inc., priority 2011, dated 2013)
